{"sequences": {"note": "Sequences of proteins named here, by UniProt entry; tags and fusion partners are left off.", "UniProt P14618, whole entry, looked up": "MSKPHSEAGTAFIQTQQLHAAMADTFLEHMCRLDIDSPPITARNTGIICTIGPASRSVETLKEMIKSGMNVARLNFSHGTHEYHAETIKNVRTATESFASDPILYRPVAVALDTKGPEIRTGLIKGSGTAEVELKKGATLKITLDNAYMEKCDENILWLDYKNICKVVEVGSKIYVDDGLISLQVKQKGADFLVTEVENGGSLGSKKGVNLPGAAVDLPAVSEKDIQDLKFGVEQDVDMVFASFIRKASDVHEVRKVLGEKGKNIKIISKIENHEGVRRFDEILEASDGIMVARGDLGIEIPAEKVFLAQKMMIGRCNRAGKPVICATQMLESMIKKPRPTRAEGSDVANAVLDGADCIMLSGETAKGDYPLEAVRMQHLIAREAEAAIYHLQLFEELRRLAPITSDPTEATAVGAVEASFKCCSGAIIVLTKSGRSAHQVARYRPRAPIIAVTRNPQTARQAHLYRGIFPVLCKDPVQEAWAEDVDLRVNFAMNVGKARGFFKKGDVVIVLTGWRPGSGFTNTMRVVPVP"}, "source": "PubChem BioAssay AID624389", "about": "(National Center for Advancing Translational Sciences (NCATS), 2012)", "note": "Only a part is listed here, and it is no random draw. Active and inactive are the calls of the source. Calls follow the shape of the dose curve; as a rule, active = well fitted curve in the direction sought with a large enough effect; inactive = no such curve, though single readings can be large or run the other way."}
{"target": "Pyruvate kinase PKM (Homo sapiens) (UniProt P14618)", "experiment": "qHTS for Activators of Human Muscle Isoform 2 Pyruvate Kinase: Extended Characterization Using A Lactate Dehydrogenase (LDH) Assay Probe 2", "settings": "purified hPK-M2, LDH-coupled NADH fluorescence kinetic", "description": "Human pyruvate kinase muscle 2 (hPK-M2)enzyme was supplied as a highly purified (>95% pure) preparation from Harvard Medical School and a secondary assay was used to evaluate compounds. This assay couples the formation of pyruvate from hPK-M2 using lactate dehydrogenase (LDH) and NADH. The depletion of NADH is followed in a fluorescent-based kinetic assay that follows the formation of pyruvate to lactate, as catalyzed LDH (described by Hannaert et al., 2002)1 Pyruvate kinase substrates, PEP and ADP, were present in the assay at 0.1 mM and 4 mM respectively. In this kinetic assay initial rates were determined by following the fluorescence of NADH depletion. NIH Chemical Genomics Center [NCGC] NIH Molecular Libraries Probe Centers Network [MLPCN] MLPCN Grant: MH085679 Assay Submitter (PI): Matthew G. Vander Heiden, Harvard Medical School\nThree uL of substrate mix (final concentration, 50 mM Tris-Cl pH 8.0, 200 mM KCl, 15 mM MgCl2, 0.1 mM PEP, 4.0 mM ADP, and 0.2 mM NADH) was dispensed into black-solid 1536 well plates. 23 nL of compounds were delivered by a pin tool and 1 uL of enzyme mix (final concentrations, 10 nM hPK-M2 and 1 uM of LDH) was added. Plates were immediately placed in ViewLux (Perkin Elmer) and NADH fluorescence was determined at 30 second exposure intervals for between 3 and 6 minutes. […]"}
{"smiles": "Nc1cccc(S(=O)(=O)N2CCCN(S(=O)(=O)c3ccc4c(c3)OCCO4)CC2)c1", "Potency": "active: 0.0919 µM"}
